Data: patent US20230285275A1, “BIOCOMPATIBLE STRUCTURE COMPRISING HOLLOW CAGE, AND MANUFACTURING METHOD THEREFOR” (MEDIFAB CO., LTD., priority 2018, published 2023)

Experiments:
[1] = system: ALP, Runx-2, OCN, and BSP; assay: Analysis of osteogenic differentiation, real-time PCR gene expression; assay type: cell-based; conditions: early stage (7 days) versus up to 14 days of culturing
Protocol: Effects of BMP-2 released from the scaffolds according to Examples 1 and 2 and Comparative Examples 1 and 2 on osteogenic differentiation were analyzed. Specifically, gene expression was evaluated by real-time PCR using particular primer sets, and the primer sets used herein are shown in Table 1 below. A total RNA was isolated from in vitro cultures on day 3, day 7, and day 14 using a RNeasy mini kit (Quiagen, USA), and subjected to reverse transcription using a high capacity cDNA reverse transcription kit (Intron Biotechnology, Korea). After synthesizing cDNA, real-time PCR (LightCycler® instrument, Roche) was performed in ALP, Runx-2, OCN, and BSP. GAPDH was used as an endogenous control.

ALP activity of mMSCs = assay: ALP assay and staining; assay type: cell-based; conditions: early stage (7 days) versus up to 14 days of culturing
Protocol: ALP activity of mMSCs was analyzed to determine biological activity of BMP-2 released from the scaffolds according to Examples 1 and 2 and Comparative Examples 1 and 2. Specifically, the activity of alkaline phosphatase (ALP), as a marker of the early stage of osteogenic differentiation was analyzed based on conversion of colorless p-nitrophenylphosphate into colored p-nitrophenol. The cells were washed twice with DPBS and lysed with a 0.2% Triton X-100 solution. ALP activity of cell lysates was analyzed using p-nitrophenylphosphate as a substrate. After culturing the cells at room temperature for 30 minutes, the biological activity was determined using a released amount of p-nitrophenol. The color change was measured using a spectrometer at 405 nm. BMP-2 was used as a positive control.
For ALP staining, the cells were washed with DPBS and fast blue PR salt was added to each well. Then, the cells were cultured at room temperature for 10 minutes and observed with an optical microscope.

B1: BMP-2: Bone morphogenetic protein-2, used as positive control (protein, UniProt P12643 283-396, looked up)
Bone morphogenetic protein 2: QAKHKQRKRLKSSCKRHPLYVDFSDVGWNDWIVAPPGYHAFYCHGECPFPLADHLNSTNHAIVQTLVNSVNSKIPKACCVPTELSAISMLYLDENEKVVLKNYQDMVVEGCGCR
- osteogenic gene expression time course [1]: significantly increased in the early stage (7 days)
- ALP activity time course (ALP activity of mMSCs): significantly increased in the early stage (7 days)
